Measurements from PubChem BioAssay (NCI).
Where “and” joins values, the source holds several entries; their conditions need not be identical. Equal values may be shown once. Only a part is listed here, and it is no random draw.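 The test compound was applied at a single concentration to cells in 96-well plates for 48 hours, and percent growth was recorded.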 Calls of active or inactive are those of the source. How the source made its calls: active means growth percent below 10; inactive means the rest.

System: HCT-116 colon
Assay: NCI-60 one-dose screen, 48 h (100 = growth as untreated, 0 = no growth, -100 = all killed)
Details: 10 µM unless noted

| Structure (SMILES) | growth |
| --- | --- |
| CC1CCNP(=O)(N(CCCl)CCCl)O1 (stereo not drawn) | inactive: 108% |
| CCN(CCCl)CC1OC(O)C(O)C1O (stereo not drawn) | inactive: 105% |
| CN(CCCl)/N=N/c1nc2nc[nH]c(=O)c2[nH]1 | inactive: 94.6% |
| Nc1ccc(N(CCCl)CCCl)cc1 | inactive: 64.5% |
| c1cc(-c2nn[nH]n2)ccc1-c1nn[nH]n1 | inactive: 108% |
| CCCC1OP(N)(=O)OCC1CC (stereo not drawn) | inactive: 104% and inactive: 85.7% |
| CCOP(=S)(OCC)OCC | inactive: 103% |
| CCOP(=S)(OCC)SCCCl | inactive: 106% |
| CN(C)P1(Cl)=NP(Cl)(N(C)C)=NP(Cl)(N(C)C)=N1 (stereo not drawn) | inactive: 93.2% |
| Nc1ccc(CCCCOc2ccccc2)cc1 | inactive: 86% |
| O=[N+]([O-])c1cccc(Oc2ccc([N+](=O)[O-])cc2[N+](=O)[O-])c1 | active: 6.58% |
| CCN(CC)[P+](c1ccc(OC)cc1OC)(N(CC)CC)N(CC)CC | inactive: 29% |
| O=C(Nc1ccc([N+](=O)[O-])cc1)N(CCBr)CCBr | inactive: 103% |
| O=P1(N(CCCl)CCCl)Nc2ccccc2N1 | inactive: 119% |
| ClCCNCc1ccccc1 | inactive: 108% |
| O=C(O)/C=C\c1cccc(N(CCCl)CCCl)c1 | inactive: 106% |
| O=C(O[C@H]1CN2CCC1CC2)C1NCc2ccccc2[C@@H]1c1ccccc1 (stereo partly drawn) | inactive: 91% |
| CC(=O)Nc1ccc([As](=O)(O)O)c(O)c1 | inactive: 107% |
| ClCCN1CCNCC1 | inactive: 106% |

| Structure (SMILES) | growth |
| --- | --- |
| Cc1cc([N+](=O)[O-])cc([N+](=O)[O-])c1O | inactive: 102% |
| O=C(OC1CN2CCC1CC2)c1ccccc1 (stereo not drawn) | inactive: 108% |
| O=C(c1ccc([N+](=O)[O-])cc1)N(CCCl)CCCl | inactive: 104% |
| CCCCCCCCCCNP(=S)(Cl)Cl | inactive: 104% |
| COc1cc([N+](=O)[O-])c(Nc2ccc(Cl)cc2[N+](=O)[O-])c([N+](=O)[O-])c1 | inactive: 56% |
| O=[As]c1ccc(S(=O)(=O)Nc2ccccc2)cc1 (stereo not drawn) | inactive: 42.1% |
| Cc1ccc(S(=O)(=O)CN(CCCl)CCCl)cc1 | inactive: 109% |
| CCCN(CCCl)C1c2ccccc2-c2ccccc21 | inactive: 93.9% |
| CC(Cl)CN(CC(C)Cl)C(=O)c1ccccc1 (stereo not drawn) | inactive: 96.5% |
| CC(Cl)CN(CC(C)Cl)C(=O)OCC(N)C(=O)O (stereo not drawn) | inactive: 101% and inactive: 94.9% |
| C[As](=O)(O)c1cccc(C(=O)O)c1 | inactive: 96.7% |
| Cc1ccc(S(=O)(=O)N(CCCN)CCCc2c(C)nc(N)[nH]c2=O)cc1 | inactive: 97.1% |
| Cn1c(COc2ccc([N+](=O)[O-])cc2[N+](=O)[O-])cnc1[N+](=O)[O-] | inactive: 98.4% |
| O=[N+]([O-])c1ccc(CCCCCCc2ccc([N+](=O)[O-])cc2[N+](=O)[O-])c([N+](=O)[O-])c1 | inactive: 86% |
| CCSC(O)C(Cl)(Cl)Cl (stereo not drawn) | inactive: 104% |
| O=[N+]([O-])c1cc(Cl)cc([N+](=O)[O-])c1O | inactive: 98.1% |
| OP1OCCO1 | inactive: 104% |
| N#CC(C#N)=C(C#N)N(CCCl)CCCl | inactive: 99.7% |
| CC[C@H](C)[C@@H]1NC(=O)/C(=C(\C)O)C1=O | inactive: 115% |
